Molecular target: NMDA receptor site
Assay: In vitro binding, inhibition of [^3 H]MK-801 binding to rat forebrain synaptic membranes
Parameters: species or system Sprague-Dawley rat
Settings: 3 nM [^3 H]MK-801, 50 μM glycine and glutamate, 37° C., 2 hours, read-out: Ki [^3 H]MK801
Procedure: As described below, the compounds of the invention were tested for their ability to inhibit binding of radiolabeled versions of these known ligands.
Semipurified synaptic membranes were prepared according to the method of Bristow et al. (1986) with minor modifications. Sprague-Dawley rats were decapitated and the forebrains were removed, weighed, and homogenized in 20 volumes of 0.32M sucrose. The homogenate was centrifuged at 121×G for 10 min. The resulting supernatant was recentrifuged at 27,000×G for 15 min. The pellet was resuspended in 20 volumes of distilled water and this suspension was centrifuged at 8,000×G for 10 min. Both the supernatant and the buffy coat layer, removed with 2 mL of 5 mM Tris-Cl (pH 7.8), were pooled and centrifuged at 27,000×G for 15 min. The supernatant was removed, the pellet was covered with a small amount of 5 mM Tris-Cl, and the sample was frozen for at least 18 hrs at -20° C. Membranes were then washed four times in 5 mM Tris-Cl and finally resuspended in 25 mL. […]
The incubation was terminated by rapid filtration (Brandel Cell Harvester) over Whatman GF/B filters, which were then washed twice with 5 mL of 5 mM Tris-HCl. Radioactivity trapped on the filters was counted in 5 mL Scintiverse II at 50% efficiency in 7 mL minivials after standing at room temperature overnight.

Row | SMILES | Ki
1 | COc1ccc2c(c1)[C@]13CCCC[C@@H]1[C@H](C2)N(C)CC3 [Dextromethorphan, reference compound] | 2750 nM
2 | CN1CC[C@@]23CCCC[C@@H]2[C@@H]1Cc1ccc(O)cc13 [Dextrorphan, reference compound] | 520 nM
